Assay results taken from patent publication US10112899B2 (ViiV HEALTHCARE UK LIMITED, priority 2014, dated 2018).

System: HIV in the HTLV-1 transformed cell line MT-4
Test: organism not typed
Format: cell-based
Details: MT4, 96 h, MT-4 cells; luciferase/cell titer glo readout after 96 hours; 10 point dose response

Row | Compound | IC50 [nM]
1 | Cc1c2c(c(C)c([C@H](OC(C)(C)C)C(=O)O)c1-c1ccc(Cl)cc1)CN(C(=O)c1cccc(F)c1)C2 [Example 133, (S)-2-(tert-butoxy)-2-(6-(4-chlorophenyl)-2-(3-fluorobenzoyl)-4,7-dimethylisoindolin-5-yl)acetic acid] | 5
2 | Cc1c2c(c(C)c([C@H](OC(C)(C)C)C(=O)O)c1-c1ccc(Cl)c3cccnc13)CN(C(=O)c1cccc(F)c1)C2 [Example 300, (2S)-2-(tert-butoxy)-2-(6-(5-chloroquinolin-8-yl)-2-(3-fluorobenzoyl)-4,7-dimethylisoindolin-5-yl)acetic acid] | 40
3 | Cc1cc(Cl)ccc1-c1c(C)c2c(c(C)c1[C@H](OC(C)(C)C)C(=O)O)CN(C(=O)c1cccc(F)c1)C2 [Example 296, (2S)-2-(tert-butoxy)-2-(6-(4-chloro-2-methylphenyl)-2-(3-fluorobenzoyl)-4,7-dimethylisoindolin-5-yl)acetic acid] | 5
4 | COc1ccc(-c2c(C)c3c(c(C)c2[C@H](OC(C)(C)C)C(=O)O)CN(C(=O)c2cccc(F)c2)C3)c(C)c1 [Example 298, (2S)-2-(tert-butoxy)-2-(2-(3-fluorobenzoyl)-6-(4-methoxy-2-methylphenyl)-4,7-dimethylisoindolin-5-yl)acetic acid] | 24
5 | Cc1ccc(-c2c(C)c3c(c(C)c2[C@H](OC(C)(C)C)C(=O)O)CN(C(=O)c2cccc(F)c2)C3)cc1 [Example 108, (S)-2-(tert-butoxy)-2-(2-(3-fluorobenzoyl)-4,7-dimethyl-6-(p-tolyl)isoindolin-5-yl)acetic acid] | 6
6 | Cc1c(-c2c(C)c3c(c(C)c2[C@H](OC(C)(C)C)C(=O)O)CN(C(=O)c2cccc(F)c2)C3)cc(Cl)c2c1CCCO2 (atropisomer, axis not shown; (M)) [Example 295, (S)-2-(tert-butoxy)-2-((M)-6-(8-chloro-5-methylchroman-6-yl)-2-(3-fluorobenzoyl)-4,7-dimethylisoindolin-5-yl)acetic acid] | 9
7 | Cc1ccc(-c2c(C)c3c(c(C)c2[C@H](OC(C)(C)C)C(=O)O)CN(C(=O)c2cccc(F)c2)C3)c(O)c1 [Example 297, (2S)-2-(tert-butoxy)-2-(2-(3-fluorobenzoyl)-6-(2-hydroxy-4-methylphenyl)-4,7-dimethylisoindolin-5-yl)acetic acid] | 42
